Drawing on patent US10568834B2, “Delivery systems for propofol” (Yissum Research Development Company of the Hebrew …, priority 2015, dated 2020), this text covers Blood hemolysis for one substance.

The series relates to defibrinated sheep blood. The settings on record: 10 μl on TSA 5% DSB plates, up to 24 hours.

For Triton X100, the Blood hemolysis entry was “causing hemolysis”.
